Our source for the Ki values is ChEMBL document CHEMBL3639372, “Disubstituted azepan orexin receptor antagonists” (2014).

Sequences of proteins named here, by UniProt entry; tags and fusion partners are left off.
UniProt P56718, whole entry: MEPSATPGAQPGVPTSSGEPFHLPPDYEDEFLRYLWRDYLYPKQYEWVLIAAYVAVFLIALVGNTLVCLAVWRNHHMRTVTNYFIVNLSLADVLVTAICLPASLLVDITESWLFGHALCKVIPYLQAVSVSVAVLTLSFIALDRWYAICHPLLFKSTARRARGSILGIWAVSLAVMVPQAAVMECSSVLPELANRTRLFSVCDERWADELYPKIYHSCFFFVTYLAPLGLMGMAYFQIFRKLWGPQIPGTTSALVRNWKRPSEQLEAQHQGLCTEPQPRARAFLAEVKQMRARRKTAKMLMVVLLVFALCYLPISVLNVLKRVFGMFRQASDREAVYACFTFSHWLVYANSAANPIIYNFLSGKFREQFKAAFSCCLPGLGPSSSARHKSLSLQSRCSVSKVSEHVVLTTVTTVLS

The target in this assay is Orexin/Hypocretin receptor type 1 (Rattus norvegicus, UniProt P56718). In words: Radioligand Binding Assay: Compound potency can be assessed by a radioligand binding assay (described in Bergman et. al. Bioorg. Med. Chem. Lett. 2008, 18, 1425-1430) in which the inhibition constant (Ki) is determined in membranes prepared from CHO cells expressing either the orexin-1 (OX1) or orexin-2 (OX2) receptor. Format: cell membranes.
On to `CC1CCCC(COc2ccc(F)cn2)CN1C(=O)c1ccccc1-n1nccn1` (stereo not drawn), for which affinity was put at a Ki of 190 nM.
For the compound `Cc1ccc(-c2nccs2)c(C(=O)N2CC(COc3ccc(F)c(C)c3)CCCC2C)c1` (stereo not drawn), the Ki is 29 nM.
Consider `Cc1ccc(-c2ncco2)c(C(=O)N2CC(COc3ccc(F)cn3)CCCC2C)c1` (stereo not drawn), for which the Ki was found to be 110 nM.
